# Reference: patent US6743443B1, “Tablets immediately disintegrating in the oral cavity” (Eisai Co., Ltd., priority 1998, dated 2004)
# Test: Solubility at 37 °C in the disintegration test solutions of the Japanese Pharmacopoeia
# Excerpt: However, there has been no report yet for an intraoral quickly disintegrating tablet containing a slightly soluble pharmaceutical agent having an improved solubility as such and for a method of manufacturing the tablet. One of the reasons therefor is that it is difficult for satisfying all of the requirements for improving the solubility of the slightly soluble pharmaceutical agent, for a quick disintegration in the mouth and for ensuring a good touch on the tongue upon disintegration. Many of the pharmaceutical ingredients acting as a cyclic GMP phosphodiesterase inhibitor are the compounds having a relatively low solubility and are within a category of the slightly soluble pharmaceutical agents.
substance,measurement,setting,value
sildenafil (citrate),Solubility in the first disintegration test solution,first disintegration test solution (pH 1.2),2520 µg/mL
same,Solubility in the second disintegration test solution,second disintegration test solution (pH 6.8),110 µg/mL
